Read-outs that look alike come from different tables or passages of the source.

The chains behind the UniProt entries cited, without tags or fusion partners. Residues count along the entry.
UniProt P04062, 40-536: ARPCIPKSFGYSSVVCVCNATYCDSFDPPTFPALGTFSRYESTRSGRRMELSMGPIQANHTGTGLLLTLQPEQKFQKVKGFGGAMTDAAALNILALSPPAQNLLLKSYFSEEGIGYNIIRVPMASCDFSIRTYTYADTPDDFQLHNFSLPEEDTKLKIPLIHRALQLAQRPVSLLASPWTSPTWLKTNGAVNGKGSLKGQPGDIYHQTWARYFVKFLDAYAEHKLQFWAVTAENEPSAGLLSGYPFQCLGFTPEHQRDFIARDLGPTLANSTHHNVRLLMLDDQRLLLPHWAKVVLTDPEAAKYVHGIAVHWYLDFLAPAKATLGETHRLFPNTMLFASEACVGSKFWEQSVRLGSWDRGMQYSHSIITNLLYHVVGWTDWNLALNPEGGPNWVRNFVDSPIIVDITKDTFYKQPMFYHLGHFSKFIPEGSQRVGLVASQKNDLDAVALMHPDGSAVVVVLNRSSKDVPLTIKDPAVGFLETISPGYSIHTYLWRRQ

The target in one experiment is Glucocerebrosidase (Homo sapiens (Human), UniProt P04062). Kind of experiment: Glucocerebrosidase activity assay with blue substrate (4MU-Glc). The conditions noted are these: marked (inh), inhibitor; read-out: IC50 or AC50 (inh). It is filed as biochemical. The procedure: The compounds in DMSO solution 0.5 μL/well were transferred to a black 96-well plate. The final titration was 24 nM to 50 μM, 12 concentrations, 2 times dilution. 33.5 μL of enzyme solution (7.5 nM final concentration) was transferred to the wells. After 5 min of incubation at room temperature, the enzyme reaction was initiated by the addition of 33 μL/well blue substrate. Final concentrations of the blue substrate (4MU-Glc) was 1.5 mM. The blue substrate reaction was terminated by the addition of 33 μL/well stop solution (1 M NaOH and 1 M glycine mixture, pH 10) after 30 min of incubation at 37° C. The fluorescence was then measured in the Biotek Synergy H1 multi-mode plate reader with Ex=365 nm and Em=440 nm.
Additional compounds were prepared and tested according to the procedures provided in the examples above. Dose-response curves were prepared to determine IC50 or AC50 and compared to the known glucocerebrosidase activator NCGC00188758 (see Aflaki et al., Sci. Transl. Med. 6, 240ra273 (2014). Results are shown in the following table.
Additional substituted quinazoline compounds were prepared and tested according to the procedures provided in the examples above.

The target in the next experiment is wild-type GCase (Homo sapiens (Human), UniProt P04062). Kind of experiment: GCase enzyme activity assay (4MU-β-Glc, no taurocholate). It is filed as biochemical. The procedure:
In previous studies, high concentrations of taurocholate (4-10 mM) were used to improve the signal in GCase enzyme activity assays^16,27,28. […] Here we describe our modifications of the substituents on the quinazoline ring.
4-Methylumbelliferyl β-D-glucopyranoside (4MU-β-Glc), 4-methylumbelliferyl α-D-glucopyranoside,4-methylumbelliferyl α-D-galactopyranoside, and buffer components were purchased from Sigma-Aldrich (St. Louis, Mo.). The recombinant wild-type GCase enzyme velaglucerase alfa (Vpriv®, Shire Human Genetic Therapies, Inc.), acid α-glucosidase enzyme alglucosidase alfa (Lumizyme®, Genzyme Corporation), α-galactosidase A enzyme agalsidase beta (Fabrazyme®, Genzyme Corporation) were used in activity assays. […] A solution of 1 M sodium hydroxide and 1 M glycine (pH 10) was used as the stop solution for all three enzyme activity assays.
The compounds in DMSO solution (0.5 μL/well) were transferred to a black 96-well plate (the final titration started from 100 μM, a 12 or 24-point 2-fold dilution series). […] After 5 min of incubation at room temperature, the enzyme reaction was initiated by the addition of blue substrate (4MU-13-Glc) (33 μL/well). The final concentration of the blue substrate was 1.5 mM. The blue substrate reaction was terminated by the addition of 33 μL/well stop solution (1 M NaOH and 1 M glycine mixture, pH 10) after 30 min of incubation at 37° C. […]

As for `c1cncc(-c2nc(NC3CCc4ccccc4C3)c3ccccc3n2)c1` (single isomer, unassigned) [compound 80], the IC50 on Glucocerebrosidase is 6 nM.
`c1cncc(-c2nc(N[C@@H]3CCc4ccccc4C3)c3ccccc3n2)c1` [Compound 9b]: the IC50 at wild-type GCase (pH 5.0, mean ± SD, read-out: IC50 pH 5.0) came out at 30.1 ± 4.5 nM; on wild-type GCase (pH 7.0, mean ± SD, read-out: IC50 pH 7.0), 18.8 ± 2.5 nM.
With `c1cncc(-c2nc(NC3CCc4ccccc4C3)c3ccccc3n2)c1` (centres unmarked) [compound 66], the half-inhibitory concentration (IC50) at Glucocerebrosidase was determined as 6 nM.
The same measure, in the same setting: in the case of `c1cncc(-c2nc(N[C@@H]3CCc4ccccc4C3)c3ccccc3n2)c1` [compound 81] it was 10 nM.

The values are drawn from patent US10167270B2, “Substituted quinazoline compounds and uses thereof for modulating glucocerebrosidase activity” (Northwestern University, priority 2015, dated 2019).
